# Measured affinities in a library of Ab-14 heavy chain variants

Data: MIT Lincoln Laboratory AlphaSeq set, Li et al. 2023, doi:10.1038/s41467-023-39022-2, as distributed in FLAb.

Target: peptide PDVDLGDISGINAS, taken from heptad repeat 2 (HR2) of SARS-CoV-2 spike.

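Phage display of a naive human antibody library on the peptide gave the parent. Designed CDR sequences, proposed from the first random library and measured here. Their group label is 14H_GPLM_HC (GPLM: also part of the Gaussian process libraries; HC: hill climbing; a sequence that several methods proposed may carry one label only). The scFvs were displayed on barcoded MATa yeast, the peptide on MATalpha yeast. Mating (16 h, 30 °C) was followed by selection of diploids and sequencing of their barcodes. The ratio of observed to expected reads was calibrated, replicate by replicate, on BCL2-family standards whose Kd was known from biolayer interferometry. Mating was done six times.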

Each scFv is VH, the linker GGGGSGGGGSGGGGS, VL, as in the parent Ab-14, and differs from it in the CDRs of the heavy chain only.
VH: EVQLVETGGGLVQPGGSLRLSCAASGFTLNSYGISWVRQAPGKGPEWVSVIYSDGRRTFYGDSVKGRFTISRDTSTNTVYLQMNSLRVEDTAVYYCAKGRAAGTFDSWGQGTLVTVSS
VL: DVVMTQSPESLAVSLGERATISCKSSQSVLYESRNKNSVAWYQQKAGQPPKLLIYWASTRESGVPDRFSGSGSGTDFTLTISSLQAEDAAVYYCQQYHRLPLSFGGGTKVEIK

Each variant is given by its three heavy chain CDRs, as the data file delimits them; those of the parent are GFTLNSYGIS, VIYSDGRRTFYGDSVK, GRAAGTFDS. Values are log10 of the apparent Kd in nM; lower means stronger binding. The mean shown is taken over the replicates in which the pair was detected. "n.d." marks a missing value. The strain was present, yet no cells mated with the target were sequenced in that replicate, which points to weak or no binding. In the paper, a design with two or fewer of six values counts as a poor binder. As a blank, each scFv also met three strains without target: over all heavy chain designs, 1% of these pairings were detected, typically at 2.08 and seldom below 0.84. Also given: how often the same scFv was detected with the empty control strains, with their mean in brackets. The parent sequence was in this pool as ten entries: three were never detected, three once, and four in most replicates, with averages from 0.34 to 2.37. The range of this assay differs from that of the first round, and the authors advise against merging the two.

CDR-H1,CDR-H2,CDR-H3,"log10 Kd, replicates","log10 Kd (nM), mean",signal with controls
GFLLNDYGIS,VIYSDGRRTQYIDSVK,GRAAGTFDS,1.25 1.04 0.99 0.81 0.94 1.05,1.01,1/18 (3.16)
GFTLNDYGIS,VIYSDGRRTFYGDSVK,GRMAGTFES,2.45 n.d. 1.03 3.83 1.52 1.07,1.98,0/18
GFTLNNYGIS,VIYSDGRRTFYADSVK,GRAAGTFDS,0.90 0.68 1.37 1.31 0.67 1.12,1.01,0/18
GFTLNEYGIS,VIYSDGRRTFYTDSVK,GEQAGTFDS,0.73 0.52 0.59 0.93 0.64 0.95,0.73,0/18
GFTLNSYGIS,VIYSDGHRTFYHDSVK,GQLAGTFDS,n.d. 0.93 -1.19 -0.42 -0.80 n.d.,-0.37,0/18
GFTLDSYGIS,VIYSDGRRTFYGDSVK,GREAGTFHS,n.d. n.d. n.d. n.d. n.d. n.d.,n.d.,0/18
GFTINSYGIS,VIYSDGRRTFYSDSVK,GDAAGTFDS,0.48 1.02 0.55 0.12 0.73 0.91,0.63,0/18
GFTLNQYGIS,VIYSDGTRTFYSDSVK,GRVAGTFDS,-0.93 -0.94 -0.57 -0.54 -0.79 -0.58,-0.73,0/18
GFGLNEYGIS,VIYSDGRRTFYHDSVK,GRTAGTFDS,0.13 -0.31 -0.08 0.11 -0.17 0.05,-0.05,1/18 (2.83)
GFTLNDYGIS,VIYSDGRRTFYSDSVK,GRAAGFFMS,n.d. n.d. n.d. n.d. n.d. n.d.,n.d.,0/18
GFRLNSYGIS,VIYSDGRRTFYDDSVK,GQLAGTFDS,1.77 1.44 1.76 1.88 1.98 2.11,1.82,1/18 (3.27)
GFDLNSYGIS,VIYSDGRRTFYDDSVK,GQIAGTFDS,0.45 0.12 0.60 0.46 0.41 0.61,0.44,0/18
GFTLNEYGIS,VIYSDGRRTFYTDSVK,GRLAGTFDS,0.64 1.04 -0.01 0.00 0.66 0.13,0.41,0/18
GFTLNEYGIS,VIYSDGRRTFYTDNVK,GRFAGTFDS,0.22 0.65 0.05 0.62 -0.20 -0.32,0.17,1/18 (0.97)
GFTLDSYGIS,VIYSDGRRTFYGDSVK,GRTAGTFDK,1.07 2.24 0.99 1.17 0.71 0.19,1.06,0/18
GFDLNSYGIS,VIYSDGRRTFYADSVK,GRAAGTFDT,0.18 0.53 0.54 0.34 0.68 0.55,0.47,0/18
GFQLNSYGIS,VIYADGRRTFYGDSVK,GRAAGTNDS,n.d. n.d. n.d. n.d. n.d. n.d.,n.d.,0/18
GFTLNEYGIS,VIYSDGRRTFYGDSVK,GRAGVTFDQ,0.25 0.45 -0.08 0.10 -0.43 -0.25,0.01,0/18
GFDLNSYGIS,VIYSDGQRTFYVDSVK,GRQAGTFDS,0.38 0.09 0.83 0.14 0.29 0.28,0.34,0/18
GFTLNSYGIS,VIYSDGRRTFYDDSVK,GQLAGTFDK,1.47 1.52 1.01 1.68 1.10 1.35,1.36,1/18 (2.40)
GFTLNNYGIS,VIYSDGRRTFYSDSVK,GRAAGTFDS,0.80 0.45 0.30 0.82 0.47 1.20,0.67,0/18
GFTLNDYGIS,VIYSDGRRTFYGDSVK,GRLAGTFDK,0.75 0.76 n.d. 1.94 0.92 2.38,1.35,0/18
GFTLNSYGIS,VIYSDGRRTFYSDSVK,GEAVGTFDS,n.d. n.d. n.d. n.d. n.d. n.d.,n.d.,0/18
GFTLNSYGIS,VIYADGRRTFYGDSVK,GRQAGTFKS,0.24 0.03 0.22 -0.04 0.30 0.01,0.13,1/18 (2.35)
GFDLNSYGIS,VIYSDGRRTFYGDSVK,GRAAGAFWS,0.88 0.71 0.24 0.68 0.21 -0.02,0.45,0/18
GFTLNEYGIS,VIYSDGRRTFYTDSVK,GRFAGTFDG,n.d. n.d. 0.11 0.24 0.97 n.d.,0.44,0/18
GFTLNQYGIS,VIYSDGRRTFYSDSVK,GRTAGTFDS,0.16 0.19 -0.05 -0.11 -0.19 -0.25,-0.04,1/18 (1.51)
GFALNDYGIS,VIYSDGRRTQYIDSVK,GRAAGTFDS,1.18 0.96 0.97 0.70 1.45 1.30,1.09,0/18
GFTLNEYGIS,VIYSDGRRTFYSDSVK,GRAAGFFDS,n.d. n.d. n.d. n.d. n.d. n.d.,n.d.,1/18 (1.07)
GFSLNDYGIS,VIYSDGRRTFYGDSVK,GRAAGTFIS,n.d. n.d. n.d. n.d. n.d. n.d.,n.d.,0/18
GFTLNDYGIS,VIYSDGRRTFYGDSVK,GRHAGTFIS,-0.34 -0.02 n.d. -0.38 0.22 0.22,-0.06,0/18

Excerpt, the final 4 entries:

CDR-H1,CDR-H2,CDR-H3,"log10 Kd, replicates","log10 Kd (nM), mean",signal with controls
GFALNDYGIS,VIYSDGRRTQYIDSVK,GRAAGTFDS,1.18 0.96 0.97 0.70 1.45 1.30,1.09,0/18
GFTLNEYGIS,VIYSDGRRTFYSDSVK,GRAAGFFDS,n.d. n.d. n.d. n.d. n.d. n.d.,n.d.,1/18 (1.07)
GFSLNDYGIS,VIYSDGRRTFYGDSVK,GRAAGTFIS,n.d. n.d. n.d. n.d. n.d. n.d.,n.d.,0/18
GFTLNDYGIS,VIYSDGRRTFYGDSVK,GRHAGTFIS,-0.34 -0.02 n.d. -0.38 0.22 0.22,-0.06,0/18